Assay results as given in US9802942B2, “Substituted 4-methyl-pyrrolo[1,2-A]pyrimidine-8-carboxamide compounds and uses thereof for modulating glucocerebrosidase activity” (Northwestern University, priority 2015, dated 2017).

Chains of the proteins cited; added tags and fusions are not shown. Residues count along the entry.
UniProt P04062, 40-536 limits assumed: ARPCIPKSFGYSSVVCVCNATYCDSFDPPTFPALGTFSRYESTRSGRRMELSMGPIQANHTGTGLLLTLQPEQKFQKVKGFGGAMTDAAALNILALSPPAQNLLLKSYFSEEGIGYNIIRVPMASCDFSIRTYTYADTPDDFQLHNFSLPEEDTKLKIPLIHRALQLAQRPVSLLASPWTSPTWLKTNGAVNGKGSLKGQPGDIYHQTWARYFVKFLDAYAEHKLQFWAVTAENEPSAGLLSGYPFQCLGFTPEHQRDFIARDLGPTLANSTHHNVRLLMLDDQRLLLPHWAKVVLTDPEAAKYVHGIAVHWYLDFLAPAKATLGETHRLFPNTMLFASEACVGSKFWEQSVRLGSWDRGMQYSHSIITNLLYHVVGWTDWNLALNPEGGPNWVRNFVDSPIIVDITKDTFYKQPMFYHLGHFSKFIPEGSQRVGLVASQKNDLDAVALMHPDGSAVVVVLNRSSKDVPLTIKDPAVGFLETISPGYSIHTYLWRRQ

How the values were obtained:
[1] = biological target: glucocerebrosidase (GCase), recombinant wt. enzyme velaglucerase alfa (Homo sapiens, UniProt P04062); assay: Glucocerebrosidase activity assay with red substrate (Res-β-glc); conditions: in words
Procedure: The compounds in DMSO solution 0.5 μL/well were transferred to a black 96-well plate (the final titration was 24 nM to 50 μM, 12 concentrations, 2 times dilution). 33.5 μL enzyme solution (7.5 nM final concentration) was transferred to the wells. After 5 min of incubation at room temperature, the enzyme reaction was initiated by the addition of 33 μL/well blue substrate or 66.5 μL/well red substrate. Final concentrations of the blue substrate (4MU-Glc) and red substrate (Res-Glc) were 1.5 mM and 30 μM, respectively. The red substrate reaction was measured in the Biotek Synergy H1 multi-mode plate reader with Ex=573 nm and Em=610 nm at 37° C. every 20 sec for 30 min. The blue substrate reaction was terminated by the addition of 33 μL/well stop solution (1 M NaOH and 1 M glycine mixture, pH 10) after 30 min of incubation at 37° C. The fluorescence was then measured in the plate reader at Ex=365 nm and Em=440 nm. […]
The compounds in DMSO solution 0.5 μL/well was transferred to a black 96-well plate (the final titration was 24 nM to 50 μM, 12 concentrations). […] The red substrate reaction was measured in the Biotek Synergy H1 multi-mode plate reader with Ex=573 nm and Em=610 nm at 37° C. in every 20 seconds for 30 min. […] The fluorescence was then measured in the plate reader with Ex=365 nm and Em=440 nm.

purified wt. GCase = purified wt. GCase (Homo sapiens, UniProt P04062); conditions: cited from earlier work
GCase = GCase (Homo sapiens, UniProt P04062); assay: Binding affinity test by FP assay (competition with probe 3); conditions: in words; 19.5 nM to 10 μM
Procedure: The enzyme in GCase enzyme activity buffer (25 μL/well) was added to a 384-well black plate. The fluorescent probe 3 (25 nL/well, 50 nM final concentration) was transferred to a 384-well black plate using a Labcyte Echo 550 Liquid Handler system. Compounds in DMSO stock solution (50 nL) were transferred to the plate. The plate was shaken at room temperature in dark for 20 min. The final concentration was 19.5 nM to […], 10 concentrations, 2 times dilution. The fluorescence polarization was measured in a Molecular Devices Analyst GT with Ex=535 nm and Em=580 nm, G Factor=1.05.
The enzyme in GCase enzyme activity buffer (25 μL/well) was added to a 384-wells black plate, The fluorescent probe 3 (25 nL/well, 50 nM final concentration) was transferred to a 384-wells black plate by using Labcyte Echo 550 Liquid Handler system. Compounds 1, and 2 in DMSO stock solution (50 nL) (the final titration was 19.5 nM to 10 μM, 10 concentrations) were transferred to the plate. The plate was shook at room temperature in dark for 20 min. The fluorescence polarization was measured in Molecular Devices Analyst GT with Ex=535 nm and Em=580 nm, G Factor=1.05.

activation activity in the Res-β-glc substrate enzyme activity assay [1]: did not show any activation activity
activity in FP competition with probe 3 (GCase): very weak activity
Structure (SMILES): C#Cc1ccc(NC(=O)c2cnn3c(C)cc(C)nc23)cc1
AC50 (purified wt. GCase): 5.2 µM
